According to article PMC11554605, “Pharmacological differences between human and mouse P2X4 receptor explored using old and new tools” (Purinergic Signalling, 2024):
Read-outs that look alike come from different tables or passages of the source.

Tests used:
Format in all cases: cell-based
human P2X4 [1] = target: T1, human P2X4 (Homo sapiens, UniProt Q99571); test: Intracellular Ca2+ assay (Fura-2, FlexStation 3), agonist responses in 1321N1 cells stably expressing human P2X4; conditions: 1321N1 cells expressing human P2X4; peak Ca2+ response
T1 construct: expressed in transfected cells
T1 sequence (Q99571 1-388): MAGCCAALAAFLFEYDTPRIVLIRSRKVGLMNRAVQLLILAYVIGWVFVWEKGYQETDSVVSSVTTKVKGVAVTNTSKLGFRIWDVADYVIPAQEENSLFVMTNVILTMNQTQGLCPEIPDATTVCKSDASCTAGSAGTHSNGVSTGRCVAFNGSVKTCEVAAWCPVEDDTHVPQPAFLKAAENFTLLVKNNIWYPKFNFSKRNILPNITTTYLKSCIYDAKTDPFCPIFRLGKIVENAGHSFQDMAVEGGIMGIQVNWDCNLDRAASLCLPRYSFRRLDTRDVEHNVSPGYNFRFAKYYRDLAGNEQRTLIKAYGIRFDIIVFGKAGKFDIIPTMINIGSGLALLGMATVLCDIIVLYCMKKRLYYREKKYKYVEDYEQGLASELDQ

mouse P2X4 [2] = target: T2, mouse P2X4 (Mus musculus, UniProt Q9JJX6); test: Intracellular Ca2+ assay (Fura-2, FlexStation 3), agonist responses in 1321N1 cells stably expressing mouse P2X4; conditions: 1321N1 cells expressing mouse P2X4; peak Ca2+ response
T2 construct: expressed in transfected cells
T2 sequence (Q9JJX6 1-388): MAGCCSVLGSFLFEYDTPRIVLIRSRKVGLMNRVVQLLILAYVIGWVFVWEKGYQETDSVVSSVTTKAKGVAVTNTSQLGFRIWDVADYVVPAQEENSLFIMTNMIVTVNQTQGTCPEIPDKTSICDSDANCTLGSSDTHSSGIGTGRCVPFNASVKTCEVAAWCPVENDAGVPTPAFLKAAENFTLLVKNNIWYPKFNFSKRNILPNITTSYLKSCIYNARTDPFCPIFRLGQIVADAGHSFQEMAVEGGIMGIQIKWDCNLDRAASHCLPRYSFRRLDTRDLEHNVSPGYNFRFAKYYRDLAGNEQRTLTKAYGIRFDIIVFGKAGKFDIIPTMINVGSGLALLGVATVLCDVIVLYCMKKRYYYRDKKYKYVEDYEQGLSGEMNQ

human P2X4 [3] = target: T1, human P2X4; test: Intracellular Ca2+ assay, antagonists against Ca2+ responses evoked by EC80 ATP (1.5 µM) in 1321N1 cells expressing human P2X4
mouse P2X4 [4] = target: T2, mouse P2X4; test: Intracellular Ca2+ assay, antagonists against Ca2+ responses evoked by EC80 ATP (1.5 µM) in 1321N1 cells expressing mouse P2X4

Nc1ccn([C@@H]2O[C@H](COP(=O)(O)OP(=O)(O)OP(=O)(O)O)[C@@H](O)[C@H]2O)c(=O)n1 [CTP, Cytidine 5′-triphosphate]
EC50 (human P2X4 [1]): 20 ± 4 µM | EC50 (mouse P2X4 [2]): 10 ± 1 µM

Nc1ncnc2c1ncn2[C@@H]1O[C@H](COP(=O)(O)OP(=O)(O)OP(=O)(O)O)[C@H]2OC3(O[C@H]21)C([N+](=O)[O-])=CC(=[N+]([O-])[O-])C=C3[N+](=O)[O-] (stereo partly drawn) [TNP-ATP, 2′,3′-O-(2,4,6-Trinitrophenyl)-ATP]
IC50 (human P2X4 [3]): 17 ± 5 µM

Cc1nc(/N=N/c2ccc(S(=O)(=O)O)cc2S(=O)(=O)O)c(COP(=O)(O)O)c(C=O)c1O [PPADS, Pyridoxalphosphate-6-azophenyl-2′,4′-disulfonic acid]
IC50 (human P2X4 [3]; read-out: IC50 Human): 34 ± 16 µM | IC50 (mouse P2X4 [4]): 42 ± 14 µM

Cc1ccc(S(=O)(=O)N2c3ccccc3Oc3ccccc32)cc1 [PSB-12062, N-(p-methylphenylsulfonyl)phenoxazine]
IC50 (human P2X4 [3]; read-out: IC50 Human): 0.248 ± 0.041 µM
